US8354447B2, “mGLU receptors antagonists for treating disorders associated with mGLU receptors including addiction and depression” (The Scripps Research Institute, priority 2002, dated 2013)

System: male Wistar rats
Experiment: Brain stimulation reward (ICSS) under baseline conditions, paroxetine and p-MPPI
Type: in vivo, rat

What does the source list for `Fc1ccc([C@@H]2CCNC[C@H]2COc2ccc3c(c2)OCO3)cc1` [paroxetine, Paroxetine hydrochloride]?
response latencies (paroxetine 1.25-10 mg/kg (Example 4.1)): had no significant effect on reward thresholds or response latencies at the doses tested; response latencies (paroxetine 1.25 or 5 mg/kg (Example 4.2)): increased response latencies

Where a name gives a salt, the structure may show the parent alone.
